Laboratory results taken from patent US6855807B1 (priority 1999, dated 2005).

Amino acid sequences for entries named in this document (tags omitted). A change or cut given only in a name is not applied to a line headed by its entry.
UniProt P34975: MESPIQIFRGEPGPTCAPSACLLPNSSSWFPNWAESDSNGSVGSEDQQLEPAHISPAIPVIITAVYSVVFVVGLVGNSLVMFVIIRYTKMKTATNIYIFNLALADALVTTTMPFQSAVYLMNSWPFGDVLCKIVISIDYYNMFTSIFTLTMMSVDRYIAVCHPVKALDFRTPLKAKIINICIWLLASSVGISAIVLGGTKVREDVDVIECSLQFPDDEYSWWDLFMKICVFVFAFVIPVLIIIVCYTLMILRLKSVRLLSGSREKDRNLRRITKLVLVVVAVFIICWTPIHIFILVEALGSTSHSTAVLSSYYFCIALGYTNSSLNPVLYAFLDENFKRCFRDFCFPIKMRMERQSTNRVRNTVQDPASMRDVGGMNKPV
UniProt P32300, whole entry, looked up: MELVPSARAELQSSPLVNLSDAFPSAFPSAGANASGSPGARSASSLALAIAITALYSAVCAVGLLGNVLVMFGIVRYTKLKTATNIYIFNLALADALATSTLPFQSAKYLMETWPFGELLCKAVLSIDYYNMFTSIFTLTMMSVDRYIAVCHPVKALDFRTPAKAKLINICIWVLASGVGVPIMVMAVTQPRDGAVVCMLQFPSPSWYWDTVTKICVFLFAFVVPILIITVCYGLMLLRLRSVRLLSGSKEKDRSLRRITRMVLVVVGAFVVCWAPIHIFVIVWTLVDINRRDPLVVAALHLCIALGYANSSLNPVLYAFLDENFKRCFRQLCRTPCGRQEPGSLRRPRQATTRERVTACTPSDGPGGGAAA

Tests used:
kappa opioid receptor = kappa opioid receptor (Rattus norvegicus, UniProt P34975); conditions: read-out: Kappa (Ki); ligand alone; competition with 3H-diprenorphine; mean ± SEM (n = 3-4)
kappa-delta heterodimer = kappa-delta heterodimer (UniProt P32300+P34975); conditions: read-out: Kappa-Delta (Ki); ligand alone; 0.5 nM 3H-diprenorphine; mean ± SEM (n = 3-4)

CO[C@]12CC[C@@]3(C[C@@H]1C(C)(C)O)[C@H]1Cc4ccc(O)c5c4[C@@]3(CCN1CC1CC1)[C@H]2O5
Ki (kappa opioid receptor): 0.71 nM | Ki (kappa-delta heterodimer): 0.3 nM
